# Measurements reported in patent US12268683B2, “Compounds and methods for synergistic activation of M channels” (THE REGENTS OF THE UNIVERSITY OF CALIFORNIA, priority 2018, dated 2025).
# Experiments:
# Format in all cases: cell-based
# [1] = target: KCNQ2-W236L/KCNQ3-W265L (Homo sapiens, UniProt O43525+O43526, W236L/W265L); assay: TEVC of double-mutant WL/WL KCNQ2/3 channels
# Excerpt: (§1) cRNA transcripts encoding human KCNA1, KCNQ1, KCNQ2, KCNQ3, KCNQ4, or KCNQ5 were generated by in vitro transcription using the T7 polymerase message machine kit (Thermo Fisher Scientific), after vector linearization, from cDNA sub-cloned into plasmids incorporating X. laevis β-globin 5′ and 3′ UTRs flanking the coding region to enhance translation and cRNA stability. cRNA was quantified by spectrophotometry. Mutant cDNAs were generated by site-directed mutagenesis using a QuikChange kit according to manufacturer's protocol (Stratagene, San Diego, Calif.) and corresponding cRNAs prepared as above. Defolliculated stage V and VI X. laevis oocytes (Ecocyte Bioscience, Austin, Tex.) were injected with Kv channel a subunit cRNAs (10 ng total per oocyte). […]
# (§2) TEVC recording was performed at room temperature with an OC-725C amplifier (Warner Instruments, Hamden, Conn.) and pClamp10.2 software (Molecular Devices, Sunnyvale, Calif.) 3-5 days after cRNA injection as described in the section above. […] Currents were recorded in response to pulses between −80 and +40 mV at 20 mV intervals, or a single pulse to +40 mV, from a holding potential of −80 mV, to yield current-voltage relationships, current magnitude, and for quantifying activation rate. […]
# [2] = target: KCNQ2 (Homo sapiens, UniProt O43526); assay: TEVC of homomeric KCNQ2 expressed in Xenopus oocytes
# Excerpt: as §1, §2
# [3] = target: KCNQ2/3 (Homo sapiens, UniProt O43525+O43526); assay: TEVC of heteromeric KCNQ2/3 channels expressed in Xenopus laevis oocytes
# Excerpt: cRNA transcripts encoding human KCNA1, KCNQ1, KCNQ2, KCNQ3, KCNQ4, or KCNQ5 were generated by in vitro transcription using the T7 polymerase message machine kit (Thermo Fisher Scientific), after vector linearization, from cDNA sub-cloned into plasmids incorporating X. laevis β-globin 5′ and 3′ UTRs flanking the coding region to enhance translation and cRNA stability. cRNA was quantified by spectrophotometry. Mutant cDNAs were generated by site-directed mutagenesis using a QuikChange kit according to manufacturer's protocol (Stratagene, San Diego, Calif.) and corresponding cRNAs prepared as above. Defolliculated stage V and VI X. laevis oocytes (Ecocyte Bioscience, Austin, Tex.) were injected with Kv channel a subunit cRNAs (10 ng total per oocyte). Oocytes were incubated at 16° C. in Barth's saline solution (Ecocyte) containing penicillin and streptomycin, with daily washing, for 3-5 days prior to two-electrode voltage-clamp (TEVC) recording.
# TEVC recording was performed at room temperature with an OC-725C amplifier (Warner Instruments, Hamden, Conn.) and pClamp10.2 software (Molecular Devices, Sunnyvale, Calif.) 3-5 days after cRNA injection as described in the section above. Oocytes were placed in a small-volume oocyte bath (Warner) and viewed with a dissection microscope. Chemicals were sourced from Sigma. Bath solution was (in mM): 96 NaCl, 4 KCl, 1 MgCl2, 1 CaCl2. 10 HEPES (pH 7.6). […] MTX (DMSO), sorbic acid (ethanol), and glutaconic acid (molecular grade H2O) were stored at −20° C. as 1 M stocks. Oleamide was stored as a 1 mM stock in ethanol at 4° C. Palmitic acid was conjugated with bovine serum albumin as a 1 mM stock and stored at −20° C. All compounds were diluted to working concentrations each experimental day. All compounds were introduced to the recording bath via gravity perfusion at a constant flow of 1 ml/min for 3 min prior to recording. Pipettes were of 1-2 MΩ resistance when filled with 3 M KCl. Currents were recorded in response to pulses between −80 and +40 mV at 20 mV intervals, or a single pulse to +40 mV, from a holding potential of −80 mV, to yield current-voltage relationships, current magnitude, and for quantifying activation rate. TEVC data analysis was performed with Clampfit10.2 (Molecular Devices) and Graphpad Prism software (GraphPad, San Diego, Calif., USA); values are stated as mean±SEM. […]
# cRNA transcripts encoding human KCNQ2, KCNQ3, KCNQ4, KCNQ5 (Kv7.2-Kv7.5) were generated by in vitro transcription using the T7 polymerase mMessage mMachine kit (Thermo Fisher Scientific), after vector linearization, from cDNA sub-cloned into plasmids incorporating Xenopus laevis β-globin 5′ and 3′ UTRs flanking the coding region to enhance translation and cRNA stability. cRNA was quantified by spectrophotometry. […]
# [4] = target: KCNQ4 (Homo sapiens, UniProt P56696); assay: TEVC of homomeric KCNQ4 expressed in Xenopus oocytes; details: −60 mV; read-out: EC50 of KCNQ4 activation
# Excerpt: as §1, §2
# [5] = target: KCNQ5 (Homo sapiens, UniProt Q9NR82); assay: TEVC of homomeric KCNQ5 expressed in Xenopus oocytes
# Excerpt: as §1, §2
# [6] = target: KCNQ3* (KCNQ3-A315T) (Homo sapiens, UniProt O43525, A315T); assay: TEVC of homomeric KCNQ3* expressed in Xenopus oocytes; details: −60 mV; read-out: EC50 of KCNQ3* activation
# Excerpt: as §1, §2
smiles,measurement,setting,value
"CC(C)CC(=O)O [IVA, isovaleric acid]",effect on WL/WL KCNQ2/3 (in words),[1],did not increase
same,shift of KCNQ2 activation V0.5,"[2]; IVA, concentration not given",−9 mV
same,EC50,"[2]; −60 mV, read-out: EC50 of KCNQ2 activation",340 nM
same,KCNQ2/3 current fold-increase,[3],fivefold
same,effect on KCNQ2/3 at low dose,[3],negligible effects
same,"effect on voltage dependence of KCNQ2/3 activation, screen of M. oppositifolius leaf compounds",[3],negative-shifted
same,shift of KCNQ2/3 activation V0.5,[3],−11 mV
same,EC50,[4],16200 nM
same,effect on KCNQ5 (in words),[5],no effect
same,EC50,[6],500 nM
